In patent publication US20080274104A1, “Targeting a Secreted Pro-Apoptotic Factor for Cancer Therapeutics” (priority 2005, published 2008):

System: NGAL expression in SKBr3 cell line
Experiment: NGAL expression in breast cancer cell line
Type: cell-based, human
Excerpt: As mentioned elsewhere herein, NGAL is a lipocalin 2 involved in inducing apoptosis in normal hematopoietic cells. The mouse form of NGAL (24p3) is required for marrow and spleen invasion in mouse leukemia models. […] Importantly, over expression of NGAL correlates with patients that have a poor prognosis. In microarray studies, 21 of 133 breast cancer patients expressed very high levels (6-10 fold) of NGAL mRNA. Higher expression of NGAL correlated with increasing tumor size (P<0.013). The correlation with ER negativity and NGAL expression was also significant (P<0.001). Similarly, there was a strong positive correlation with HER2/neu expression (P<0.003). In addition, HER2+ER− patients also had significant levels of HER2/neu (P<0.01). […] The level of NGAL protein expression in cells and conditioned medium (CM) was much higher in the SKBr3 human breast cancer cell line (HER2/neu+, ER−) than MCF-7 cells (HER2/neu-, ER+). […] The Herceptin HER2 antibody and PI-3 kinase inhibitor LY294002 inhibited NGAL expression in the SKBr3 cell line. Activated Akt was also needed for optimum expression of NGAL. NGAL transcriptional sequences contain a consensus NF-kB binding site and since Akt is known to activate NF-kB, the inventors predict that NGAL expression is mediated through NF-kB. […]

Herceptin: the anti-HER2 antibody
NGAL expression: inhibited
